Protein sequences, listed by entry. Tags and fused reporters are not part of them.
Guanine nucleotide-binding protein G(i) subunit alpha-3 (Rattus norvegicus), P08753, UniProt P08753, whole entry, looked up: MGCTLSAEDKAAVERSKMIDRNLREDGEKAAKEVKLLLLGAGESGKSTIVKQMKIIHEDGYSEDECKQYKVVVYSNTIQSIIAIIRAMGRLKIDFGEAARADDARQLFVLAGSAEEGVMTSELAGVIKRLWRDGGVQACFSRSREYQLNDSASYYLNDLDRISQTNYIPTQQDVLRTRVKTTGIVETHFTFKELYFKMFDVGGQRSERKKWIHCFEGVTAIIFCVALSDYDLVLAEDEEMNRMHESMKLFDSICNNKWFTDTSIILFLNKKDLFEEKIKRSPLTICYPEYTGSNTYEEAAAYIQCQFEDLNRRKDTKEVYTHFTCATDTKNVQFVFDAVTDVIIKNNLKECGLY

# Bioassay records deposited in PubChem BioAssay by ICCB-Longwood Screening Facility, Harvard Medical School.
# The sample as a whole holds a higher share of hits than the screen did.
# HCMV UL50-53 inh – cytomegalovirus nuclear egress complex inhibition; HTRF UL50-UL53 interaction, normalized percent inhibition; AID 1918969; inhibition, % (test concentration not listed); 190,000 compounds, 0.15% hits; in the data active = inhibition above about 27%, passing the limit was not always enough
# GIV-Gai inh – inhibitors of GIV peptide binding to Galpha-i3, primary screen, biochemical, fluorescence polarization, FITC-GIV GBA peptide, rat Galphai3 | 90 min; stronger effect = lower value; scaled: aluminum fluoride 0%, vehicle 100% | AID 1224905, 2016 | 210,000 compounds, 0.42% hits | percent of control (FP), % (concentration not given with the values) | Guanine nucleotide-binding protein G(i) subunit alpha-3 (Rattus norvegicus), P08753;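 active = replicate mean at 85% of control or lower, very high polarization wells dropped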;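 note: wells of about 15 µL received 100 nL stock; the first replicate is given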
# GIV Gai FP conf – GIV-Galpha-i3 inhibition, FP confirmation | shares compounds with GIV-Gai inh | AID 1259350 | fluorescence polarization, mP at 100 µM | 580 compounds, 38% hits | FITC-GIV peptide binding to Galphai3, fluorescence polarization; hits give low values;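 active = inhibition score of 15 or more, meaning 100 minus mean polarization as percent of control over three replicates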;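 note: lower mP means peptide displaced from Galphai3 so more inhibition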
# GIV-Gai AS conf – confirmation of inhibitors of GIV binding to human Galpha-i3; 580 compounds, 39% hits; AlphaScreen counts at 100 µM; shares compounds with GIV-Gai inh; AlphaScreen Galphai3-GIV binding, purified proteins, 90 min; hits give low values;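 active = inhibition score at or above a set limit, where the score is 100 minus the three-replicate mean percent of control signal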
# Hits are given with their value; – = inactive; · = not tested or not shown; ! = not active in a repeat.
SMILES,HCMV UL50-53 inh,GIV-Gai inh,others
CCOC(=O)c1nc(NCc2ccc3c(c2)OCO3)c2ccccc2n1,–,–,
Cc1cc2nc(NCc3ccc4c(c3)OCO4)c(C(=O)OC(C)C)nc2cc1C,–,76,
CCOc1ccc(-c2n[nH]c3c2cnc2cc4c(cc23)OCCO4)cc1,–,–,
Cc1cc(C)n(C)c(=O)c1C(=O)O,·,–,
Cc1cc(=O)[nH]c(O)c1C(=O)O,65,–,
N#CC(C(=O)Cc1ccccc1)c1ccc(Cl)cc1 (stereo not given),–,–,
COc1ccc(Cl)cc1NC(=O)c1cn(C2CCCCC2)c(=O)c2c1c1ccccc1n2C,–,–,
CCOc1ccccc1NC(=O)c1cn(C2CCCCC2)c(=O)c2c1c1ccccc1n2C,54,–,
CCOC(=O)N1CCN(C(=O)/C(=C\c2cccs2)NC(=O)c2ccc(OC)c(OC)c2)CC1,·,–,
CC(C)CCn1c(=O)c2sccc2n2c(CCCC(=O)N3CCCC3)nnc12,·,–,
O=C(O)c1ccc2c(c1)C1C=CCC1C(c1cccc3ccccc13)N2 (stereo not given),35,–,
COC(=O)c1ccc2c(c1)C1C=CCC1C(c1cccc3ccccc13)N2 (stereo not given),–,–,
COc1ccc(S(=O)(=O)C(C#N)c2nc3ccccc3nc2N2CCCC2)cc1 (stereo not given),–,–,
COC(=O)c1ccc2c(c1)n(CCO)c(C)[n+]2CCO,–,–,
Cc1cc(N2CCCC2)ccc1/C=C/C1=CCN(C)CC1,–,–,
C=CCn1c(C)c(/C=C/C2=CCN(C)CC2)c2ccccc21,–,-11,
C=CCn1c(CCCNC(=O)c2ccccc2)nc2ccccc21,–,·,
Cc1ccccc1-n1nnnc1Sc1nnnn1-c1ccccc1,40,·,
Cc1cccc(-n2c(Sc3nnnn3-c3ccccc3)nc3ccccc3c2=O)c1C,–,·,
CC1=NN(c2cccc(Br)c2)C(=O)/C1=C\c1ccc(-c2cccc([N+](=O)[O-])c2)o1,–,–,
O=C1OC(c2ccccc2)OC(=O)C1=Cc1ccc(-c2cccc(Br)c2)o1 (stereo not given),·,64,GIV Gai FP conf=–;GIV-Gai AS conf=17821
COc1ccc(N2CC(O)(c3ccc(OC)c(OC)c3)[N+]3=C2SCCC3)cc1 (stereo not given),·,–,
CCCNS(=O)(=O)c1ccc(OCC(=O)O)c(Cl)c1,–,–,
COc1ccc(NC(=O)c2sc3nc4c(c(-c5ccco5)c3c2N)CCCC4)cc1,·,84,GIV Gai FP conf=–;GIV-Gai AS conf=–
COc1ccc(NC(=O)c2sc3nc4c(c(-c5ccco5)c3c2N)CCCCC4)cc1,·,–,
SMILES,HCMV UL50-53 inh,GIV-Gai inh,others
COC(=O)C1C(C)=CC(=O)CC1CC(C)C (stereo not given),–,·,
C#CCOc1ccc(C2CC(=O)Nc3c2c(C)nn3-c2ccc3nnc(C)n3n2)cc1 (stereo not given),·,–,
COc1ccc(Nc2nc3ccccc3nc2NS(=O)(=O)c2ccc(C)cc2)c(OC)c1,–,39,GIV Gai FP conf=–;GIV-Gai AS conf=–
COc1ccc2nc(NS(=O)(=O)c3ccc(C)cc3)c(Nc3cc(Cl)ccc3OC)nc2c1,–,–,
CCC(C)(C)NC(=O)c1ccc2ncsc2c1,–,·,
CC(=O)n1c(=O)c2ccccc2c(=O)n1-c1ccccc1,–,79!,GIV Gai FP conf=52;GIV-Gai AS conf=2364
CNC(=O)c1cn(-c2ccccc2)c(=O)c2ccccc12,–,–,
N#C/C(=C/c1cn(-c2ccccc2)nc1-c1cc2ccccc2o1)S(=O)(=O)c1ccccc1,·,–,
COc1cc2ccccc2cc1C(=O)OCC(=O)NC1CC1,–,·,
COc1cccc(N/C(SCc2cccc([N+](=O)[O-])c2)=C(/C#N)C(=O)NCc2ccccc2)c1,·,–,
Cn1c(=O)c(C(=O)CS(=O)(=O)O)c2c3c(c(Br)ccc31)C(=O)c1ccccc1-2,·,84,GIV Gai FP conf=–;GIV-Gai AS conf=5202
CC(=O)c1c2c3c(c(Br)ccc3n(C)c1=O)C(=O)c1ccccc1-2,·,–,
COc1ccc(C2N(c3ccccc3)OC(=O)N2c2ccccc2)cc1 (stereo not given),·,–,
COc1ccc(C2=CC(=O)N(c3ccccc3)C(c3ccccc3)O2)cc1 (stereo not given),·,–,GIV Gai FP conf=–;GIV-Gai AS conf=–
CC(C(=O)NCc1cccnc1)N1Cc2ccccc2C1=O (stereo not given),–,–,
COc1ccc(OCc2nc(-c3cc4c(C)nn(-c5ccccc5)c4s3)no2)cc1,–,–,
CCOC(=O)c1cc2c(=O)n3ccccc3nc2n(C2CCCCC2)c1=N,–,–,
N=c1c(C(N)=O)cc2c(=O)n3ccccc3nc2n1C1CCCC1,–,–,GIV Gai FP conf=–;GIV-Gai AS conf=–
Cc1noc(Cn2cnc3c4ccccc4n(CC(=O)NC4CCCC4)c3c2=O)n1,·,–,
CC(NC(=O)c1cccnc1)c1nc(-c2ccccc2)no1 (stereo not given),–,–,
Cc1ccc2nc(S/C=C/C(=O)c3ccccc3)[nH]c2c1,–,–,GIV Gai FP conf=–;GIV-Gai AS conf=–
O=C(/C=C/Sc1nc2cc(Cl)c(F)cc2[nH]1)c1ccccc1,–,–,
Cc1ccc(CN2C(=O)C3CCCCC3C2=O)cc1S(=O)(=O)NCc1ccccn1 (stereo not given),–,–,
Cc1cc(/C=C2\SC(=Nc3ccccc3)NC2=O)c(C)n1-c1ccccc1,–,–,GIV Gai FP conf=–;GIV-Gai AS conf=–
CCc1ccc(N=C2NC(=O)/C(=C/c3cc(C)n(CC)c3C)S2)cc1,–,–,
SMILES,HCMV UL50-53 inh,GIV-Gai inh,others
CCC(C)(N)c1nnnn1-c1ccc(C)cc1 (stereo not given),·,–,
CC1CCN(C(=O)COc2ccccc2C#N)CC1,–,–,
Cc1ccc2c(c1)NC(C1CC1)=NC(c1ccc(F)cc1)=N2,–,–,
O=C(CN1C2=NCCCN2c2ccccc21)c1ccc(Cl)cc1,·,–,GIV Gai FP conf=–;GIV-Gai AS conf=–
O=C(CN1C2=NCCCN2c2ccccc21)c1ccc(Cl)c(Cl)c1,·,–,
O=C(OCCN1C(=O)c2cccc3c(N4CCOCC4)ccc(c23)C1=O)c1ccc(S(=O)(=O)N2CCOCC2)cc1,–,–,
O=C(O)CCCC(=O)Nc1nc2n(n1)C(c1ccc(Cl)cc1)C=C(c1ccc(Cl)cc1)N2 (stereo not given),–,–,
O=C(O)CCC(=O)Nc1nc2n(n1)C(c1ccc(Cl)cc1)C=C(c1ccccc1)N2 (stereo not given),–,63,GIV Gai FP conf=44;GIV-Gai AS conf=2477
CCOc1cc(C(=O)Nc2c3c(nn2-c2ccc(OC)cc2)CS(=O)(=O)C3)cc(OCC)c1OCC,·,–,
CCN(CC)c1ccc(C2C3=C(CC(C)(C)CC3=O)OC3=C2C(=O)CC(C)(C)C3)c(OCc2ccc(Cl)cc2)c1,·,–,
O=S(=O)(c1cc(-c2noc(C3CC3)n2)cs1)N1CCN(c2ccccc2)CC1,·,–,
O=C(NCc1cccc(Cl)c1)c1ccc2c(c1)N(Cc1ccccc1)CCS2,–,–,
O=C(NCc1cccc(Cl)c1)c1cc2ccccn2c1,·,76,GIV Gai FP conf=–;GIV-Gai AS conf=9777
Clc1cccc2c(N3CCCCCC3)cnnc12,–,83,GIV Gai FP conf=–;GIV-Gai AS conf=–
CC1CC(C)CN(c2cnnc3c(Cl)cccc23)C1 (stereo not given),–,–,
COC(=O)[C@@H](Cc1c[nH]c2ccccc12)NC(=O)c1ccc2nc[nH]c2c1,–,·,
NC(=O)CN1C(=O)Cc2ccccc2C1=O,–,63,GIV Gai FP conf=58;GIV-Gai AS conf=12845
O=C(O)CCN1C(=O)Cc2ccccc2C1=O,–,·,
